According to PubChem BioAssay AID1259400 (National Center for Advancing Translational Sciences (NCATS), 2018):
Values joined by “and” are separate entries in the source; they are usually repeats but may differ in a detail not shown here. Equal entries are not always repeated. The list shows a part of the results, in another mix than the full data. Some results for these compounds are left out of this collection, so the calls shown say nothing about other tests. Active and inactive are the calls of the source.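 Rule for the calls: active = activity change of -60% or lower, but not beyond a set lower limit; inconclusive = change between -60% and -40%, or beyond the set limit; inactive = change above -40%.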

Chains of the proteins cited; added tags and fusions are not shown.
UniProt Q9HBX9, whole entry: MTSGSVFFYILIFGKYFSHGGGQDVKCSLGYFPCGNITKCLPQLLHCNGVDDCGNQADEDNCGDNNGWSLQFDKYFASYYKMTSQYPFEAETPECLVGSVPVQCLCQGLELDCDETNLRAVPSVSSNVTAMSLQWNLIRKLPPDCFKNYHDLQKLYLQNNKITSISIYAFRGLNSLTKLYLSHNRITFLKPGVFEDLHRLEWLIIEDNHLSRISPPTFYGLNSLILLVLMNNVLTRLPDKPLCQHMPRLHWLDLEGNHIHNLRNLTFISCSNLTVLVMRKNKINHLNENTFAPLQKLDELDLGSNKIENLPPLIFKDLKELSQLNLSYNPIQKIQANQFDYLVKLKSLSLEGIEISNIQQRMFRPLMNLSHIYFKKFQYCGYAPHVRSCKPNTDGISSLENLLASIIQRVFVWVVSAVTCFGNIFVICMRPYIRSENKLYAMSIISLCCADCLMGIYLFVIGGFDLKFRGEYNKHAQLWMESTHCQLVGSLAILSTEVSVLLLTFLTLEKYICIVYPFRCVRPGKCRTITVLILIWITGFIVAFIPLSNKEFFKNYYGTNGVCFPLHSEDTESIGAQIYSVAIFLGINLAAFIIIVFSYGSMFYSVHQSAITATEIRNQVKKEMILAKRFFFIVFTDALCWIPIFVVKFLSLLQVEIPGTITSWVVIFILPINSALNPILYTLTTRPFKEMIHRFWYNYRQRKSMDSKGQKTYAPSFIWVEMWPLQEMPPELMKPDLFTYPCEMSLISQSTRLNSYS

molecular target: Relaxin receptor 1 (Homo sapiens) (UniProt Q9HBX9); assay: qHTS Assay for Antagonists of the Relaxin Receptor RXFP1; conditions: HEK293-RXFP1, relaxin-stimulated cAMP HTRF, 30 min; at 57.5 µM; active compounds read low
Source text: The relaxin hormone is involved in the variety of biological functions in normal tissues and diseases. The role of relaxin is well-established in female reproduction and parturition, mammary gland and endometrial development, maintenance of myometrial quiescence during pregnancy. Relaxin signaling through its G protein-coupled receptor (GPCR) RXFP1 results in ECM remodeling through regulation of collagen deposition, cell invasiveness, proliferation and overall tissue homeostasis. […] Recombinant human relaxin (rhRlx) is currently being tested in clinical trials as a protective agent in congestive heart failure, in treating severe preeclampsia, and as an anti-fibrotic agent in various organs. […] Upon relaxin binding RXFP1 activation leads to the activation of adenylate cyclase (AC) via G?s. cAMP will activate PKA, which phosphorylates many signaling proteins. Thus, detection of cAMP increase is an easy and reliable indication of relaxin receptor activation. To screen for antagonists of the relaxin receptor, a HEK293T cell line stably transfected with RXFP1 was used. RXFP1 activation by relaxin in presence of various concentrations of tested compounds was assayed by changes in cAMP levels as detected with a time-resolved fluorescence energy transfer (TR-FRET) cAMP detection kit.
For the primary screening, we used HTRF(R) (Homogenous Time-Resolved Fluorescence) cAMP HiRange assay (Cisbio Bioassays, 62AM6PEJ). Presence of cAMP in the cell lysate disrupts binding between the Cryptate-labeled anti-cAMP and d2-labeled cAMP pair, leading to a decrease in TR-FRET signal. The libraries were screened at two doses (57microM and 11microM), followed by a confirmation of the hits at 7-point serial dilution in the range of final concentrations [57microM - 78nM]. Data were normalized to the controls for basal activity (buffer only) and 100% activity (5 nM porcine relaxin). The EC50 values were determined from concentration-response data modeled with the standard Hill equation. NCGC Assay Protocol Summary: HiHEK (Hawaiian HEK293 LGR7 stably transfected with human RXFP1) were grown in the following media: DMEM+10%FBS+Pen/Strep + Geneticin (1mg/ml). For the assay, the cells were seeded in DMEM+Pen/Strep (with no serum & selective antibiotics) at 2,100 cells/ 3microl/well with MultiDrop Combi dispenser (Thermo Scientific, Logan, UT) onto white tissue culture treated solid bottom1536-well plates (Greiner #789173-F) and allowed to attach/recover overnight at 37 degrees C, 5% CO2. Next, 23nl/well of compound solutions in DMSO were transferred into wells with a pintool (Kalypsis, San Diego, CA). […] EC80 (relaxin at 50pM final concentration) was dispensed to the rest of the plate except columns 1&2 which were used as a negative control (EC0, buffer only), 1microl/well also. The cells were stimulated by relaxin in the presence of compounds for 30 minutes at 37 degrees C, 5% CO2. The detection reagents were prepared individually by dilution in Lysis buffer (supplied with the assay kit) just prior to dispensing. 1microl/well of cAMP-d2 and 1microl/well anti-cAMP-Eu3+-Cryptate antibodies were added simultaneously with BioRAPTR FRDtrade mark Workstation (Beckman Coulter). The plates were incubated at ambient temperature for 30 minutes and, then, FRET signal was read on Envision plate reader (PerkinElmer, Waltham, MA), at wavelengths 340nm (excitation), 615nm & 665nm (emission of donor and acceptor channels respectively).

SMILES | activity change, negative = inhibition
O=C(NCC1(N2CCCCC2)CCCCC1)c1cc([N+](=O)[O-])ccc1Cl | inactive: -6.29%
CN1[C@@H]2CC[C@H]1CC(OC(=O)C(O)(c1ccccc1)c1ccccc1)C2 (stereo not given in full) | inactive: 1%
COc1cc(SC)ccc1C(=O)NCC1(N(C)C)CCCCC1 | inactive: -1.71%
CCN(CC)CC(C)C(C)OC(=O)C(O)(c1ccccc1)c1ccccc1 (stereo not given) | inactive: -2.54%
CC(C)N1C(=O)CC2(CCN(CCOC(=O)C(O)(c3ccccc3)c3ccccc3)CC2)C1=O | inactive: 3.18%
Cc1ccc(C(=O)NCC2(N3CCCCC3)CCCCC2)cc1 | inactive: 1.93%
CN(C)c1ccc(C(=O)NCC2(N(C)C)CCCCC2)cc1 | inactive: -1.98%
CN(C)C1CCCC1OC(=O)C(O)(c1ccccc1)c1ccccc1 (stereo not given) | inactive: -5.74%
Cc1ccccc1C(=O)NCC1(N2CCCCC2)CCCCC1 | inactive: 7.99%
O=C(NCC1(N2CCCCC2)CCCCC1)c1cc(F)c(F)cc1Cl | inactive: 13%
C=CCN1CCN(CCOC(=O)C(O)(c2ccccc2)c2ccccc2)CC1 | inactive: -11.4%
COc1ccc(C(=O)NCC2(N(C)C)CCCCC2)cc1 | inactive: 2.86%
O=C(NCC1(N2CCCCC2)CCCCC1)c1cccc(Br)c1 | inactive: -7.99%
CCN1CCCC(OC(=O)C2(O)c3ccccc3C=Cc3ccccc32)C1 (stereo not given) | inactive: -14.8%
Cc1cc(C(=O)NCC2(N3CCCCC3)CCCCC2)ccc1[N+](=O)[O-] | inactive: -23%
CN(C)C1(CNC(=O)c2ccc(Br)cc2)CCCCC1 | inactive: 6.25%
COc1cc(C(=O)NCC2(N(C)C)CCCCC2)c([N+](=O)[O-])cc1OC | inactive: 11%
COc1ccc(Cl)cc1C(=O)NCC1(N(C)C)CCCCC1 | inactive: -9.62%
COc1cccc(C(=O)NCC2(N3CCCCC3)CCCCC2)c1 | inactive: 5.4%
COc1ccc(C(=O)NCC2(N(C)C)CCCCC2)cc1Cl | inactive: -9.26%
O=C(NCC1(N2CCCCC2)CCCCC1)c1cccc(Cl)c1 | inactive: -15.3%
O=C(OC1CN2CCC1CC2)C(CO)(c1ccccc1)c1ccccc1 (stereo not given) | inactive: -1.65%
CC(C)COc1ccc(C(=O)NCC2(N(C)C)CCCCC2)cc1 | inactive: -17.7%
C=C(C)C#CC(O)(C(=O)OC1CCN(C)CC1)c1ccccc1 (stereo not given) | inactive: 13.6%
COc1ccc(Br)c(C(=O)NCC2(N3CCCCC3)CCCCC2)c1 | inactive: -2.09%
COc1cc(C(=O)NCC2(N(C)C)CCCCC2)cc(OC)c1OC | inactive: -2.54%
Cc1cccc(C(=O)NCC2(N(C)C)CCCCC2)c1 | inactive: 2.76%
O=C(OCCN1CCCC1)C(O)(c1ccccc1)c1ccccc1 | inactive: -9.63%
CC(C)Oc1ccc(C(=O)NCC2(N(C)C)CCCCC2)cc1 | inactive: -6.33% and inactive: 3.72%
CN(C)c1cccc(C(=O)NCC2(N(C)C)CCCCC2)c1 | inactive: -6.84%
